Values of other authors as cited in PMC10179972, “New Hybrid Tetrahydropyrrolo[3,2,1-ij]quinolin-1-ylidene-2-thioxothiazolidin-4-ones as New Inhibitors of Factor Xa and Factor XIa: Design, Synthesis, and In Silico and Experimental Evaluation” (Molecules, 2023).

Amino acid sequences for entries named in this document (tags omitted). Residues count along the entry.
UniProt P03951, 388-625 limits assumed: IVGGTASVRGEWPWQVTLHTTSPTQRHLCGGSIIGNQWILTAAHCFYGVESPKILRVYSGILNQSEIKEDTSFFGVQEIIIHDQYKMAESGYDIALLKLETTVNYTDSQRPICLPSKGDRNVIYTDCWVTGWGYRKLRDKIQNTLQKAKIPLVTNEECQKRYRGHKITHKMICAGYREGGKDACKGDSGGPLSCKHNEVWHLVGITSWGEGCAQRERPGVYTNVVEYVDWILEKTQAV
UniProt P03951, 19-387 partner limits assumed: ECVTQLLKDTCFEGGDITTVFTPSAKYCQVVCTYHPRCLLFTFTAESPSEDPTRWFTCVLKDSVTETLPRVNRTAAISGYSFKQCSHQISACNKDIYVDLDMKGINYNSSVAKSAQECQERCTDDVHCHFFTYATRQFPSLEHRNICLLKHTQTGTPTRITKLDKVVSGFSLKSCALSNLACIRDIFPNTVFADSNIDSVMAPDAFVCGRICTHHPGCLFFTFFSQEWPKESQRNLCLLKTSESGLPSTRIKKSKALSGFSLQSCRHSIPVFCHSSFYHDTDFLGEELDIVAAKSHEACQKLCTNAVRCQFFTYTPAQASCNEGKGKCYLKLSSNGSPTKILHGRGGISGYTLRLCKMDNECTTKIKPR

Target: factor XIa (Homo sapiens, UniProt P03951)
Settings: read-out: Ki, factor XIa (Table S2, values in brackets); known actives used in validation of docking protocol; ref [1]-[6] of Table S2, column Ligand ID; cited from earlier work

Nc1ccc2c(CNC(=O)[C@H](Cc3ccccc3)NC(=O)c3ccc4[nH]c(=O)cc(O)c4c3)cccc2n1 (single isomer, unassigned)
Ki: 60 nM
